By UniProt entry, the sequences of proteins in these tests, tags left out.
UniProt P27487, whole entry, looked up: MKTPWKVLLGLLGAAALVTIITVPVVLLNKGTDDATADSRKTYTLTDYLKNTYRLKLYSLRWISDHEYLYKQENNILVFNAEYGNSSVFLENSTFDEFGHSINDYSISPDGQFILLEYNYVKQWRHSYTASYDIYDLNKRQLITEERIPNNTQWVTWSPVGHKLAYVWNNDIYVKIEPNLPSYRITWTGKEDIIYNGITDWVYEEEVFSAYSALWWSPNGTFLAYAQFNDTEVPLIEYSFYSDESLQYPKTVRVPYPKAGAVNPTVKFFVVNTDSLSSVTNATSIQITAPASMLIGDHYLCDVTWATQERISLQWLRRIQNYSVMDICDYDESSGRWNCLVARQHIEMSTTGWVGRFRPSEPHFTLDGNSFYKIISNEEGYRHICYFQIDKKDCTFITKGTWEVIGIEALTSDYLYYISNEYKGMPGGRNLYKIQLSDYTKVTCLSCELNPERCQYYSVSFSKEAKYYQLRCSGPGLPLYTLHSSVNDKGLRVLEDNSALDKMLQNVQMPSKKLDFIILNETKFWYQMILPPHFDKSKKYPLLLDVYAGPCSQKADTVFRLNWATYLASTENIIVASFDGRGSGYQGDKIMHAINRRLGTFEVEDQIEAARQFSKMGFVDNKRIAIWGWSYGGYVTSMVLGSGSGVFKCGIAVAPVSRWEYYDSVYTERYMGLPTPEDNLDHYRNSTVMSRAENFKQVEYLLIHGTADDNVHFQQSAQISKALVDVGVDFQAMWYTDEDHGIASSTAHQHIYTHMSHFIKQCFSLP

According to ChEMBL document CHEMBL4622831, “Anti-diabetic drugs recent approaches and advancements” (Bioorg Med Chem, 2020):

Target: Dipeptidyl peptidase 4 (Homo sapiens, UniProt P27487)

## CC#CCN1C(N2CCC[C@H](N)C2)=NC2C1C(=O)N(C(C)c1nc(C)c3ccccc3n1)C(=O)N2C (stereo partly specified)
  IC50: 2.07 nM
